Data reported in ChEMBL document CHEMBL3297649, “Structure-activity relationships of privileged structures lead to the discovery of novel biased ligands at the dopamine D₂ receptor” (J Med Chem, 2014).

Amino acid sequences for entries named in this document (tags omitted).
UniProt P14416, whole entry: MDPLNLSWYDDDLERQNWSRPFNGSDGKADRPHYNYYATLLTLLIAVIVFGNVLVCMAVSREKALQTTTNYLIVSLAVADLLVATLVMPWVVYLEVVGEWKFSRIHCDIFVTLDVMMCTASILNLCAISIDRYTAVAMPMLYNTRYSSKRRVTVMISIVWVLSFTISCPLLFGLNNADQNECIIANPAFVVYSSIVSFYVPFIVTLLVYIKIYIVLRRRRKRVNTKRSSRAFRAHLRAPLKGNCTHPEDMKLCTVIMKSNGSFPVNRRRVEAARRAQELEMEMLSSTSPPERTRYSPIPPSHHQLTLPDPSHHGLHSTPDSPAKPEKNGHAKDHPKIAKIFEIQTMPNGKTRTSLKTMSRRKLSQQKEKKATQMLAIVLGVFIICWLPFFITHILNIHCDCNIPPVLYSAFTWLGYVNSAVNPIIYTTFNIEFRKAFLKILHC

Biological target: D(2) dopamine receptor (Homo sapiens, UniProt P14416)
Assay: Displacement of [3H]spiperone from human D2L receptor expressed in FlpIn CHO cell membrane after 3 hrs by liquid scintillation counting analysis
Assay type: cell membranes
Outline: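 Membranes from D2L FlpIn CHO cells, 3 μg, with 0.05 nM [3H]spiperone, 100 μM GppNHp and varied competitor in 20 mM HEPES, 100 mM NaCl, 6 mM MgCl2, 1 mM EGTA, 1 mM EDTA, pH 7.4, 3 h at 37 °C. Filtered on GF/B, washed in ice-cold saline, counted by liquid scintillation. Three experiments in duplicate.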

In the case of `COc1ccccc1N1CCN(CCNC(=O)OC(C)(C)C)CC1`, the Ki is reported as 171 nM.
